Assay results as given in paper PMC4040926, “Re-examining how complexin inhibits neurotransmitter release” (eLife, 2014).

The chains behind the UniProt entries cited, without tags or fusion partners. Residues count along the entry.
UniProt P63045, 29-60, chain 1 of 4: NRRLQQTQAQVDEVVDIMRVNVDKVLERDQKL
UniProt P63045, 29-93, chain 1 of 4: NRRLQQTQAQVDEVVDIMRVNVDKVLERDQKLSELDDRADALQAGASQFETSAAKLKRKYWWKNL
SNARE complex containing synaptobrevin truncated at residue 60, UniProt P32851, 191-253, chain 2 of 4: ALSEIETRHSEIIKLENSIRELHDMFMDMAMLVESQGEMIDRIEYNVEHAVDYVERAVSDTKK
SNARE complex containing synaptobrevin truncated at residue 60, UniProt P60880, 141-203, chain 4 of 4: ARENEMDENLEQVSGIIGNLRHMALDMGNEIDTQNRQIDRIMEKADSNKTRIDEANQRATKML
SNARE complex containing synaptobrevin truncated at residue 60, UniProt P60880, 11-82, chain 3 of 4: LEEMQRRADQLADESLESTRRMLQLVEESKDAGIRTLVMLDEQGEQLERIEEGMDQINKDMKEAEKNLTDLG

Columns and labels:
Details in all cases: both partners purified
[1] = biological target: T1, SNARE complex containing synaptobrevin truncated at residue 60 (rat | human, UniProt P63045 29-60; P32851 191-253; P60880 11-82; P60880 141-203); assay: ITC; direct titration: 200 μM CpxI(47-134) into 10-15 μM SNARE complex in the chamber; 37°C, PBS pH 7.4 with 0.25 mM TCEP; single-site model
[2] = biological target: non-truncated minimal SNARE complex (SNARE motifs of synaptobrevin, syntaxin-1 and SNAP-25) (rat | human, UniProt P63045 29-93; P32851 191-253; P60880 11-82; P60880 141-203); assay: as above
[3] = biological target: T1, SNARE complex containing synaptobrevin …; assay: ITC; competition: 200 μM CpxI fragment titrated into 10-15 μM SCΔ60 with 1.5 equivalents of CpxI(47-134); 37°C, PBS pH 7.4 with 0.25 mM TCEP; apparent constants from a single-site model

Binder | Kd [1] [µM] | dH [1] [kcal/mol] | stoichiometry N [1] | Kd [2] [µM] | dH [2] [kcal/mol] | stoichiometry N [2] | apparent Kd [3] [µM] | apparent dH [3] [kcal/mol]
CpxI(47-134), rat complexin I central helix plus C-terminus (lacks the accessory helix) (domain or fragment, UniProt P63041 47-134, looked up, source: E. coli, purified) ERKAKYAKMEAEREVMRQGIRDKYGIKKKEEREAEAQAAMEANSEGSLTRPKKAIPPGCGDEPEEEDESILDTVIKYLPGPLQDMFKK | 2.39 ± 0.19 | -19.5 | 0.92 | 0.339 ± 0.009 | -32.6 | 0.95 | 3.73 ± 0.57 | -5.5
CpxI(26-83) D27L, E34F, R37A superclamp mutant (domain or fragment, rat, UniProt P63041 26-83, looked up, complexin I (CpxI), rat, residues 26-83, superclamp mutant; Made from the rat CpxI(26-83) vector; Uniformly 2H,15N-labelled where it is the observed species in NMR; also called CpxI(26-83)supcl; Cpx(26-83)supcl; source: E. coli, purified) KLPDAAKKFEEAQEALRQAEEERKAKYAKMEAEREVMRQGIRDKYGIKKKEEREAEAQ |  |  |  |  |  |  | 4.03 ± 0.89 | -5.1
